# Laboratory results taken from patent publication US20250136592A1, “C-LINKED INHIBITORS OF ENL/AF9 YEATS” (Bridge Medicines, priority 2021, published 2025).
# Protein sequences, listed by entry. Tags and fused reporters are not part of them. Residues count along the entry.
# UniProt Q03111, 1-138 limits assumed: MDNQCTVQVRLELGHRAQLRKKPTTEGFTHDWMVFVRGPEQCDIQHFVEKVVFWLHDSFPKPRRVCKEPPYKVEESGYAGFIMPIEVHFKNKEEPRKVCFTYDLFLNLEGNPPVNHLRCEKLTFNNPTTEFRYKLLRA
# What was measured:
# ENL YEATS domain = ENL YEATS domain (Homo sapiens (Human), UniProt Q03111); assay: TR-FRET ENL Screening Assay; conditions: read-out: TR FRET ENL IC50; 6xHIS ENL YEATS domain binding to H3K9cr peptide
# [1] = test system: MV4:11 (MLL-AF4 MLL) cells; assay: Cell viability assay (CellTiter-Glo), 12 days; type: cell-based; conditions: read-out: CTG_MV4, 11 12 DAY_EC50, MV4;11 cells, 12 day
smiles,measurement,setting,value
CN1CCC[C@@H]1c1nc2cc(NC(=O)c3ccc4c(cnn4-c4ccnnc4)c3)ccc2[nH]1,IC50,ENL YEATS domain,217 nM
Cc1nn(-c2ccncc2)c2ccc(C(=O)Nc3ccc4[nH]c([C@H]5CCCN5C)nc4c3)cc12,EC50,[1],337 nM
CN1CCC[C@@H]1c1nc2ccc(NC(=O)c3ccc4c(cnn4C4CC4)c3)cc2[nH]1,IC50,ENL YEATS domain,146 nM
same,EC50,[1],31 nM
Cc1nn(C)c2cc(C(=O)Nc3cc4[nH]c([C@H]5CCCCN5C)cc4cn3)ccc12,IC50,ENL YEATS domain,41 nM
same,EC50,[1],180 nM
